Chains of the proteins cited; added tags and fusions are not shown.
UniProt P35372, whole entry: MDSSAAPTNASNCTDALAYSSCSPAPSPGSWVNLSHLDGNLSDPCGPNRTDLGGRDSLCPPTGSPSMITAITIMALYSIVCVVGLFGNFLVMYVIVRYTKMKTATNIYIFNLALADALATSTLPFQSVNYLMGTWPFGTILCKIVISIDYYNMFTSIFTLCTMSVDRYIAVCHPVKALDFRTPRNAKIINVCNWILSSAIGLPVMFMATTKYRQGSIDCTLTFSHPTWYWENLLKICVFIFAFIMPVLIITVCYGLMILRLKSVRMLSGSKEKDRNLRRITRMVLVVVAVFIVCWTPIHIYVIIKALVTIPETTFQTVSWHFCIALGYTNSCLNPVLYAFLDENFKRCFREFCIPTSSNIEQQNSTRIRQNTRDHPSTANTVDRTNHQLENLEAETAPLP

According to ChEMBL document CHEMBL1201862, “PubChem BioAssay data set” (2004):

Legend:
Caspase-3 = target: T1, Caspase-3 (Homo sapiens, UniProt P42574); test: procaspase-3 activators, dose response, biochemical, absorbance (AID 489014)
T1 sequence (P42574 whole entry): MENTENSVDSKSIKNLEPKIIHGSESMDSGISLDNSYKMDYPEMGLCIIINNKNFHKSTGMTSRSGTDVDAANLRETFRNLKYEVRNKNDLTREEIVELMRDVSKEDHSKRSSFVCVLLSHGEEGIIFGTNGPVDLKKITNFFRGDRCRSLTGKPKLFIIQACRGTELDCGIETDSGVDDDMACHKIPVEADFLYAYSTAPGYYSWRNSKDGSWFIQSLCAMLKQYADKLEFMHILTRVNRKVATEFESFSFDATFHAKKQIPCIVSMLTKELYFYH

Caspase-7 = target: T2, Caspase-7 (Homo sapiens, UniProt P55210); test: procaspase-7 activators, dose response, counter-screen for procaspase-3 activator project, biochemical, absorbance (AID 489013)
T2 sequence (P55210 whole entry): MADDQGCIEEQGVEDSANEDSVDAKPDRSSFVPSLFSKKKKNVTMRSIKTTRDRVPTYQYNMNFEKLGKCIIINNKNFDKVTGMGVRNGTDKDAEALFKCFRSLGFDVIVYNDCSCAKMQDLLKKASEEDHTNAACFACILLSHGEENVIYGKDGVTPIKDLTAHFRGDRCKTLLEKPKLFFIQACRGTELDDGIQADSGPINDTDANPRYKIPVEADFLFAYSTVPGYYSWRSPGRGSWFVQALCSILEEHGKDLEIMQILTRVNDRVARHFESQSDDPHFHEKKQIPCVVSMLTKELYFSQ

Mu-type opioid receptor = Mu-type opioid receptor (Homo sapiens, UniProt P35372); type: functional, cell-based;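 note: U2OS cells with beta-arrestin recruitment to OPRM1 by beta-gal complementation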
[1] = Counterscreen for AddAB inhibitors: absorbance-based bacterial cell-based high throughput dose response assay for inhibitors of bacterial viability. [Related pubchem assays (depositor defined):AID435030, AID449728, AID449731, AID488942, AID488955, AID488956]; type: functional

## Cc1ccc(S(=O)(=O)Nc2ccc(-c3nc4ccc(C)cc4s3)cc2)cc1
Caspase-3
  EC50: active: > 9.48 µM
Caspase-7
  EC50: inactive: > 85.3 µM

## C#C[C@]1(O)CC[C@H]2[C@@H]3CCC4=CC(=O)CC[C@]4(C)[C@H]3CC[C@@]21C [ETHISTERONE]
Mu-type opioid receptor
  EC50: inactive: 92.6 µM

## O=c1[nH]c(=O)n([C@H]2C[C@H](O)[C@@H](CO)O2)cc1C(F)(F)F [TRIFLURIDINE]
[1]
  IC50: inactive: > 39.5 µM and inactive: > 39.6 µM

“And” between values parts separate entries of the source, which are not always exact repeats. Identical values can stand only once. The source made the active and inactive calls.
